Reference: BindingDB's records for 21866885

Sequences of proteins named here, by UniProt entry; tags and fusion partners are left off.
UniProt P41143, whole entry, looked up: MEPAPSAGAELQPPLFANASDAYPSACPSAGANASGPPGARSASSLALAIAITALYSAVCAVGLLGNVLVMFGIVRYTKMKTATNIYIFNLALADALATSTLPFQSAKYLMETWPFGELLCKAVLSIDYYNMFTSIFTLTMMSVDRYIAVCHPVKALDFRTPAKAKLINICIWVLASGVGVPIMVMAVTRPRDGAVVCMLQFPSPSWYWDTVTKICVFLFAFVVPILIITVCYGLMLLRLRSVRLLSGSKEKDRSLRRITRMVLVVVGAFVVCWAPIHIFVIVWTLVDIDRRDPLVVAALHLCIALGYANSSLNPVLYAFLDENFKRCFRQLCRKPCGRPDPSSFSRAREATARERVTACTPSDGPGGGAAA

Target: Delta-type opioid receptor (Homo sapiens, UniProt P41143)
Experiment: Displacement of [3H]Cl-DPDPE from human DOP receptor expressed in CHO cells after 60 mins by scintillation counting

## CN(C(=O)Cc1ccccc1)[C@H]1C[C@@]2(CCCO2)CC[C@@H]1N1CCCC1
  Ki: > 10 µM
